# From patent US6825348B2, “Antiviral compounds” (Academia Sinica, priority 2002, dated 2004)
# Tested on: Spleen phosphodiesterase
# Assay: Activity of spleen phosphodiesterase against nucleotide analogs
# Settings: pH 6.5, 37° C., 8 h
structure (smiles),measurement,value
"Nc1ncnc2c1ncn2[C@@H]1O[C@H](COP(=O)(O)O)[C@@H](OP(=O)(O)COCCn2cnc3ncnc(N)c32)[C@H]1O [Compound 24, 9-[5′-O-(phosphono)-β-D-furanosyl]adenine-3′-[[1-(adenin-7-yl-ethoxy)methyl]phosphonate]]",yield of phosphonate 20 and adenosine 5′-monophosphate 21 with spleen phosphodiesterase,about 60%
